Laboratory results published in publication PMC11241527, “Long-Chain Alkylthio Cyclodextrin Derivatives for Modulation of Quorum-Sensing-Based Bioluminescence in Aliivibrio fischeri Model System” (International Journal of Molecular Sciences, 2024).

How the values were obtained:
[1] = Solubility in water at 25 °C; type: physicochemical
Method: The characteristics: abbreviations (A), the molecular weight (MW), the solubility in water at 25 °C (WS), and the degree of substitution (DS) of the tested CDs are presented in Table 4 and Table 5.

[2] = Aggregation studies by dynamic light scattering (volume particle size distribution); type: physicochemical; details: 1% aqueous solution, 25 °C
Method: Most CDs are prone to aggregation in aqueous solution due to their numerous hydroxyl moieties.
The aggregation behavior (nanoparticle formation) was studied by photon correlation spectroscopy (dynamic light scattering) using Malvern Zetasizer Nano ZS (Malvern Instruments, Malvern, UK) equipment at 25 °C using 1% aqueous solution.

| Substance | WS, water solubility [1] [mg/mL] | average size of small-sized aggregates [2] [nm] | size of small-sized aggregates (hydrodynamic diameter) [2] |
| --- | --- | --- | --- |
| N,N,N-Trimethylammoniopropyl-α-CD [QA-α-CD (2), reference compound] | >500 |  |  |
| N,N,N-Trimethylammoniopropyl-6-monodeoxy-6-monodecanethiol-α-CD [QA-6S-C10-α-CD (4)] | ~10 | 8.2 | 8-10 nm |
